## Binding of CDR-mutated scFvs to a peptide of the spike HR2 region

Source: Engelhart et al. 2022 (doi:10.1038/s41597-022-01779-4), MIT Lincoln Laboratory and A-Alpha Bio; data file from the FLAb repository.

Binding partner: SARS-CoV-2 spike HR2 peptide, sequence PDVDLGDISGINAS.

Each scFv is VH, a (GGGGS)3 linker, VL, as in the parent Ab-95, and differs from it in the CDRs of the light chain only.
VH: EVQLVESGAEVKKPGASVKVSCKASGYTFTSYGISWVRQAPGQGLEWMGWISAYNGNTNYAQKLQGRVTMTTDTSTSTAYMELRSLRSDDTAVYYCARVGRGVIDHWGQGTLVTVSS
VL: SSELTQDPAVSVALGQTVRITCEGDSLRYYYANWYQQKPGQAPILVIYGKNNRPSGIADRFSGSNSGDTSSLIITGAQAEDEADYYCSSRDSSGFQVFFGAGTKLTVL

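The parent was found by panning a naive human phage display library on the peptide. In library AAYL52, one, two or three CDR residues were substituted; doubles and triples were drawn at random. AlphaSeq pools MATa yeast showing the antibodies with MATalpha yeast showing the peptide. Binding brings cells together so that they mate, and sequencing counts the barcode pairs among the diploids. Read counts were normalised to the haploid input and turned into Kd by a linear fit to BCL2-family pairs of known affinity, for each replicate. The assay was run in three technical replicates.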

Each variant's VL is given in full.
Scale: log10 of Kd in nM, estimated from mating counts; low values are strong binders.
Averages over replicates are reported, and they cover detected replicates only.
"nd" marks a missing value. The strain was present, yet no cells mated with the target were sequenced in any replicate, which points to weak or no binding.
For reference, the parent read 2.31 as the reference entry and 2.25 as a member of this library.

VL	mean, log10 nM	replicates with signal	control signals
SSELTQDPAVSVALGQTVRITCEGDSLRYYYANWYQQKPGQAPILVIYGKNNRPFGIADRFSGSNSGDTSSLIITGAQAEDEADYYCSSRDSSNFQVFFGAGTKLTVL	3.05	2 of 3	1 of 9
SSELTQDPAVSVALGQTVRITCEGDSLRYYYANWYQQKPGQAPILVIYGKNNRPSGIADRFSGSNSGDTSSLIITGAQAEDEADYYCDHRDSSCFQVFFGAGTKLTVL	2.72	3 of 3	4 of 9
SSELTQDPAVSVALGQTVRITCEGDSARYYYANWYQQKPGQAPILVIYGDLNRPSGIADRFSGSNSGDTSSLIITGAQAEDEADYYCSSRDSSGFQVFFGAGTKLTVL	2.95	3 of 3	1 of 9
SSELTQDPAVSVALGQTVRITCEGDSLRYLYANWYQQKPGQAPILVIYGKNNRPSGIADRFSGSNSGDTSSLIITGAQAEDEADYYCSSRMSSGVQVFFGAGTKLTVL	4.35	3 of 3	0 of 9
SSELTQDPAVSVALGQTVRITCEGDSLRYFYANWYQQKPGQAPILVIYGKNNRPEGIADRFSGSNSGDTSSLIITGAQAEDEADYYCSSRDMSGFQVFFGAGTKLTVL	3.35	3 of 3	1 of 9
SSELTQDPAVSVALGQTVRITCEGDSHRYYDARWYQQKPGQAPILVIYGKNNRPSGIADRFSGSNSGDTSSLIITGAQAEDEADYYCSSRDSSGFQVFFGAGTKLTVL	4.35	1 of 3	1 of 9
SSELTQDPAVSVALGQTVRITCEGSSGRYYYANWYQQKPGQAPILVIYGKNNRPSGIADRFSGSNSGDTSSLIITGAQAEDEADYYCSSRDSDGFQVFFGAGTKLTVL	2.20	3 of 3	6 of 9
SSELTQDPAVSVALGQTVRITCEGDSSRYKYANWYQQKPGQAPILVIYGKNNRPSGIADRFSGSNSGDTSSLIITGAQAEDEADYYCSSRDSSGLQVFFGAGTKLTVL	3.28	1 of 3	2 of 9
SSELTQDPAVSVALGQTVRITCENDSLRYYYANWYQQKPGQAPILVIYCKNNRPSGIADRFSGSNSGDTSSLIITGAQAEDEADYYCSSRFSSGFQVFFGAGTKLTVL	5.72	1 of 3	2 of 9
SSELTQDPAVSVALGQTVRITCEGDSLRWYYANWYQQKPGQAPILVIYWKNNRPSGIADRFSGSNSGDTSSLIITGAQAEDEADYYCSSRDSSGFQVFFGAGTKLTVL	3.31	3 of 3	6 of 9
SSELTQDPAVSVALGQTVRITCSGDSLWYYYANWYQQKPGQAPILVIYGKNNRPSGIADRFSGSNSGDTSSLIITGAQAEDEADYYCSSRDSSGFDVFFGAGTKLTVL	3.14	3 of 3	5 of 9
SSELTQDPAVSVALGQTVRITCEGDSLRYYYANWYQQKPGQAPILVIYGMNNVPSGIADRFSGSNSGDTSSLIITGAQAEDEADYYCSSRDSSGCQVFFGAGTKLTVL	3.53	2 of 3	1 of 9
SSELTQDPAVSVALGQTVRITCEGDSWRYYYANWYQQKPGQAPILVIYGKNNRPSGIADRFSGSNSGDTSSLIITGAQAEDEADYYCDSRDSEGFQVFFGAGTKLTVL	nd	0 of 3	0 of 9
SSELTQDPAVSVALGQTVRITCEGDSLRYHYANWYQQKPGQAPILVIYGKDNRPSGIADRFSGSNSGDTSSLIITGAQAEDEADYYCSSRDSSGFQVFFGAGTKLTVL	1.07	3 of 3	1 of 9
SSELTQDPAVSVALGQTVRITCEGDSLRYYTINWYQQKPGQAPILVIYGKNMRPSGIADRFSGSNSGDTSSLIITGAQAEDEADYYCSSRDSSGFQVFFGAGTKLTVL	3.76	2 of 3	3 of 9
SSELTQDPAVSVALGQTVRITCEGDSLRYVYANWYQQKPGQAPILVIYGKNWRPSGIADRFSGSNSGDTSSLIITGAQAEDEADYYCSSRDSSGIQVFFGAGTKLTVL	2.92	3 of 3	3 of 9
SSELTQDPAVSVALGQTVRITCEGDSLRYYYANWYQQKPGQAPILVIYGKQNRPSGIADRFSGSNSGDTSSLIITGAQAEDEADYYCSIRDSSCFQVFFGAGTKLTVL	2.33	3 of 3	4 of 9
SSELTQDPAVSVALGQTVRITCEGHSLSYYYANWYQQKPGQAPILVIYGKNNRPSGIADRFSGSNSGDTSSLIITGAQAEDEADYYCSSRDTSGFQVFFGAGTKLTVL	2.13	3 of 3	7 of 9
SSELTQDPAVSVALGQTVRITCEDDSLRYYYANWYQQKPGQAPILVIYGKNNRPHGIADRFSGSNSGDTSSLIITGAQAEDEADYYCSSRDSSGTQVFFGAGTKLTVL	2.77	2 of 3	2 of 9
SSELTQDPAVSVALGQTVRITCEGDTLRYYYANWYQQKPGQAPILVIYGKNNRPSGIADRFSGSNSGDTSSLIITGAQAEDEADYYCNSRDSEGFQVFFGAGTKLTVL	2.69	1 of 3	4 of 9

Empty control strains, which show no peptide, gave a signal in 28% of pairings with library AAYL52; the median was 3.91 and 95% of these signals were weaker than 2.90. No background was subtracted. Also given: how often the same scFv was detected with the empty control strains.